PubChem BioAssay AID1508623 (National Center for Advancing Translational Sciences (NCATS), 2021)
The list shows a part of the results, in another mix than the full data. Some results for these compounds are left out of this collection, so the calls shown say nothing about other tests. Results filed as inconclusive are left out. Calls of active or inactive are those of the source. Calls come from the whole dose curve; as a rule, active = well fitted inhibition curve with a large enough effect; inconclusive = small, poorly fitted or top-dose-only effect; inactive = no such curve, though single readings can be large or run the other way.

assay: Primary qHTS for Identification of Small Molecule Inhibitors of Huntingtin Promoter Activity; settings: HEK293 HTT promoter firefly luciferase reporter (activity 0% = vehicle and -100% = no light), 24 h; at 57.5 µM (top of the series); note: nearly all actives have a fitted effect of over 50% in size
Source text: Assay Provider: Russell L. Margolis M.D.
Department Neurology, Johns Hopkins University School of Medicine, Baltimore, MD
Huntington's Disease (HD) is a neurodegenerative disorder caused by a CAG repeat expansion in exon 1 of huntingtin (HTT). While there are currently no disease-modifying treatments for HD, recent efforts have focused on development of nucleotide-based therapeutics to lower HTT expression. As an alternative to siRNA or oligonucleotide methods, we hypothesized that suppression of HTT expression might be accomplished by small molecules that either (1) directly decrease HTT expression by suppressing HTT promoter activity or (2) indirectly decrease HTT expression by increasing the promoter activity of HTT-AS, the gene antisense to HTT that appears to inhibit expression of HTT.
We developed and employed a high throughput screen for modifiers of HTT and HTT-AS promoter activity using luminescent reporter HEK293 cells; of the 52,041 compounds tested, we identified 898 replicable hits. We used a rigorous stepwise approach to assess compound toxicity and the capacity of the compounds to specifically lower huntingtin protein in 5 different cell lines, including HEK293 cells, HD lymphoblastoid cells, mouse primary neurons, HD iPSCs differentiated into cortical-like neurons, and HD hESCs. We found no compounds which were able to lower huntingtin without lowering cell viability in all assays, though the potential efficacy of a few compounds at non-toxic doses could not be excluded.
SEQUENCE No. (1, 2, 3, etc.); […] (e.g., Cells, Incubation, Reagent, etc.); VALUE and DESCRIPTION.
1; Reagent; 4 uL; 2,500 Hek293 luciferase reporter cells per wells
3; Compound; 23 nL; Control inhibitor / compound library
5; Reagent; 2.5 uL; Firefly Luc reagent; Dual-Glo Luciferase Reporter Assay System (Promega)
6; Time; 10 min; room temperature incubation
7; Detection; Luminescence; FLuc
NOTES (numbers refer to sequence above)
1; High-throughput screening, measuring luminescence from a Hek293 luciferase reporter, was performed in 1,536 well white-walled tissue-culture treated plates. 2,500 cells were plated in 4 µL of Opti-MEM per well using a Multidrop Combi Reagent Dispenser (ThermoFisher).
2; Assay plates were cultured for 24 hours.
3; Control inhibitor (PTC124; final concentration of 50 uM) and compound library (at final concentrations of 460 nM - 57.5 uM) were added to the assay plate using the Kalypsis Pintool Robotic System equipped with 1536 pinheads.
4; Cells were then incubated for 24 hours at 37 degrees C prior to luminescence measurements.
5; In all cases, luminescence was measured using the Dual-Glo Luciferase Reporter Assay System (Promega) following the manufacturer's instructions.
6; Room temperature incubation.
7; Luminescence signal was obtained using the PerkinElmer ViewLux plate reader. Results were normalized to vehicle control (0% activity) and zero RLU (-100% activity).

| SMILES | activity change, negative = inhibition |
| --- | --- |
| CN(C)C1(CNC(=O)c2cccc(Cl)c2)CCCCC1 | inactive: -12.5% |
| CN(C)C1(CNC(=O)c2ccccc2F)CCCCC1 | inactive: -10.1% |
| CN(C)C1(CNC(=O)c2ccccc2[N+](=O)[O-])CCCCC1 | inactive: -8.48% |
| CCCCOc1ccccc1C(=O)NCC1(N(C)C)CCCCC1 | inactive: -6.22% |
| CCOc1cccc(C(=O)NCC2(N(C)C)CCCCC2)c1 | inactive: -7.91% |
| COc1ccc(C(=O)NCC2(N(C)C)CCCCC2)cc1Cl | inactive: 6.54% |
| COc1cccc(C(=O)NCC2(N3CCOCC3)CCCCC2)c1 | inactive: -5.58% |
| CC(C)COc1ccc(C(=O)NCC2(N(C)C)CCCCC2)cc1 | inactive: -13.4% |
| COc1cc(C(=O)NCC2(N(C)C)CCCCC2)cc(OC)c1OC | inactive: -2.08% |
| Cc1cccc(C(=O)NCC2(N(C)C)CCCCC2)c1 | inactive: -16.5% |
| CC(C)Oc1ccc(C(=O)NCC2(N(C)C)CCCCC2)cc1 | inactive: -5% |
